# Reported water solubility values for industrial, environmental and drug-like chemicals

Source: data files of OPERA 2.9 (Mansouri et al.), github.com/kmansouri/OPERA.

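These are experimental values that the OPERA curators gathered from public databases to train and test their QSAR models. One number stands for a compound and property, with no spread given. Method and conditions are not stated for these values. The measured form (salt, isomer or mixture) is not always the one drawn. Some entries may be limits or estimates that an upstream database listed as plain numbers.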

Water solubility is log10 of mol/L, nominally at 25 °C; higher is more soluble.
"–" marks a cell with nothing listed here.

| structure (SMILES) | name | log solubility (log10 mol/L) |
|---|---|---|
| NC(=O)Nc1cccc(Br)c1 | 3-Bromophenylurea | -2.541 |
| CCCCCCCCCCCCCCCC(=O)OC[C@@H](NC(=O)C(Cl)Cl)[C@H](O)c1ccc([N+](=O)[O-])cc1 | Chloramphenicol palmitate | -2.728 |
| Cc1nnc(C(C)C)n1[C@H]1C[C@H]2CC[C@@H](C1)N2CC[C@H](NC(=O)C1CCC(F)(F)CC1)c1ccccc1 | Maraviroc | -4.685 |
| O=C(O)c1ccccc1I | Benzoic acid, 2-iodo- | -2.73 |
| CCC(SC(CC)C(=O)O)C(=O)O (centres undefined) | meso-2,2'-Thiobis-butanoic acid | -0.709 |
| CCCCCCCCCCCCCCCCCCNC(=O)C(C)O (centres undefined) | – | -4.06 |
| CCCCCCCCCCCCCCCCCCNC(=O)c1cccnc1 | N-Octadecyl-3-pyridinecarboxamide | -3.187 |
| O=C(O)c1c(Br)cc(Br)cc1Br | 2,4,6-Tribromobenzoic acid | -2.011 |
| Nc1cccc2cccc(S(=O)(=O)O)c12 | 1-Naphthalenesulfonic acid, 8-amino- | -3.048 |
| CC(C)C(O)(CCC(C)(O)C(=O)O)C(=O)O (centres undefined) | 2,5-Dihydroxy-2-methyl-5-(propan-2-yl)hexanedioic acid | -1.37 |
| O=C[C@H]1C[C@@H]2OC(C(Cl)(Cl)Cl)O[C@@H]2[C@H]1O (some centres not stated) | – | -2.042 |
| CC(C)C(O)C(C)(C)C(=O)O (centres undefined) | 2,2,4-Trimethyl-3-hydroxyvaleric acid | -0.897 |
| Cc1cc(N)ccc1Br | 4-Bromo-m-toluidine | -2.719 |
| CC(=O)OC/C=C(/C)CCC=C(C)C | cis-3,7-Dimethyl-2,6-octadien-1-yl acetate | -3.794 |
| Nc1c(-c2nc3cc4c(cc3o2)C(=O)c2ccccc2C4=O)ccc2c1C(=O)c1ccccc1C2=O | – | -5.496 |
| CCOc1ccccc1C=O | Benzaldehyde, 2-ethoxy- | -2.112 |
| O=C(NOC(=O)c1ccco1)c1ccco1 | N-[(Furan-2-carbonyl)oxy]furan-2-carboxamide | -1.972 |
| NS(=O)(=O)c1cc2c(cc1Cl)N=C(CSCc1ccccc1)NS2(=O)=O | Benzthiazide | -4.525 |
| CCC(C)=C(CC(=O)O)C(=O)O | 2-(1-Methylpropylidene)butanedioic acid | -2.301 |
| CCCCOC(=O)Nc1ccccc1 | Phenylcarbamic acid butyl ester | -3.429 |
| c1ncc2cn[nH]c2n1 | Pyrazolo(3,4-d)pyrimidine | -1.381 |
| CCCCCC(O)=NCCN=C(O)CCCCC | N,N'-(Ethane-1,2-diyl)dihexanimidic acid | -3.11 |
| CC(C)CCOC(=O)c1c(C(=O)O)cccc1[N+](=O)[O-] | 3-Nitro-phthalic acid-2-isopentyl ester | -3.069 |
| CNC(=O)Nc1ccc(Cl)c(Cl)c1 | N-(3,4-Dichlorophenyl)-N'-methylurea | -3.31 |
| O=C(Nc1ccc(NC(=O)c2cc3ccccc3c(N=Nc3cc(Cl)ccc3Cl)c2O)c(Cl)c1)c1cc2ccccc2c(N=Nc2cc(Cl)ccc2Cl)c1O | – | -7.869 |
| NC(=O)Nc1ccc(F)cc1 | Urea, 1-(p-fluorophenyl)- | -1.22 |
| CCCc1nc(C(=O)O)c(C(=O)O)[nH]1 | 2-propyl-1H-imidazole-4,5-dicarboxylic Acid | -2.19 |
| CCOC(CNCC(OCC)OCC)OCC | N-(2,2-Diethoxyethyl)-2,2-diethoxyethan-1-amine | 0.126 |
| CC(CCCCCCCCC(=O)O)CC(=O)O (centres undefined) | 3-Methyldodecanedioic acid | -3.388 |
| Cc1cc2c(cn1)Cc1cccc(C)c1-2 | 3,5-Dimethyl-9H-indeno[2,1-c]pyridine | -1.575 |
| CCC(CCC(C)C)C(=N)O (centres undefined) | 2-Ethyl-5-methylhexanimidic acid | -2.352 |
| CCN(CC)CCNc1ccc(C)c2sc3ccccc3c(=O)c12 | Lucanthone | -5.034 |
| Clc1ccc(COC(Cn2ccnc2)c2ccc(Cl)cc2Cl)c(Cl)c1 (centres undefined) | Miconazole | -5.737 |
| CNC(=O)c1ncnc2nc[nH]c12 | N-Methyl-7H-purine-6-carboxamide | -2.364 |
| ClC(Cl)(Br)Br | Dibromodichloromethane | -3.21 |
| CCN(Cc1cccc(S(=O)(=O)[O-])c1)c1ccc(C(=C2C=CC(=[N+](CC)Cc3cccc(S(=O)(=O)[O-])c3)C=C2)c2ccc(O)cc2S(=O)(=O)[O-])cc1.[Na+].[Na+] | FD&C Green No. 3 | -0.607 |
| CCCCCCCCCCCCOC(=O)/C=C/C(=O)OCCCCCCCCCCCC | 1,4-Didodecyl (2E)-2-butenedioate | -6.48 |
| O=C(O)C=Cc1cccc(O)c1 | 3-(3-Hydroxyphenyl)prop-2-enoic acid | -2.098 |
| CCCCNC(=S)NCCCC | N,N'-Dibutylthiourea | -2.949 |

The last 4 entries again:

{"smiles": "CCN(Cc1cccc(S(=O)(=O)[O-])c1)c1ccc(C(=C2C=CC(=[N+](CC)Cc3cccc(S(=O)(=O)[O-])c3)C=C2)c2ccc(O)cc2S(=O)(=O)[O-])cc1.[Na+].[Na+]", "name": "FD&C Green No. 3", "log solubility (log10 mol/L)": "-0.607"}
{"smiles": "CCCCCCCCCCCCOC(=O)/C=C/C(=O)OCCCCCCCCCCCC", "name": "1,4-Didodecyl (2E)-2-butenedioate", "log solubility (log10 mol/L)": "-6.48"}
{"smiles": "O=C(O)C=Cc1cccc(O)c1", "name": "3-(3-Hydroxyphenyl)prop-2-enoic acid", "log solubility (log10 mol/L)": "-2.098"}
{"smiles": "CCCCNC(=S)NCCCC", "name": "N,N'-Dibutylthiourea", "log solubility (log10 mol/L)": "-2.949"}